Biological target: T1, human calcium receptor (Homo sapiens, UniProt P41180)
T1 construct: expressed in transfected cells; host or cells: Xenopus laevis oocytes injected with cRNA
T1 sequence (P41180 20-1078): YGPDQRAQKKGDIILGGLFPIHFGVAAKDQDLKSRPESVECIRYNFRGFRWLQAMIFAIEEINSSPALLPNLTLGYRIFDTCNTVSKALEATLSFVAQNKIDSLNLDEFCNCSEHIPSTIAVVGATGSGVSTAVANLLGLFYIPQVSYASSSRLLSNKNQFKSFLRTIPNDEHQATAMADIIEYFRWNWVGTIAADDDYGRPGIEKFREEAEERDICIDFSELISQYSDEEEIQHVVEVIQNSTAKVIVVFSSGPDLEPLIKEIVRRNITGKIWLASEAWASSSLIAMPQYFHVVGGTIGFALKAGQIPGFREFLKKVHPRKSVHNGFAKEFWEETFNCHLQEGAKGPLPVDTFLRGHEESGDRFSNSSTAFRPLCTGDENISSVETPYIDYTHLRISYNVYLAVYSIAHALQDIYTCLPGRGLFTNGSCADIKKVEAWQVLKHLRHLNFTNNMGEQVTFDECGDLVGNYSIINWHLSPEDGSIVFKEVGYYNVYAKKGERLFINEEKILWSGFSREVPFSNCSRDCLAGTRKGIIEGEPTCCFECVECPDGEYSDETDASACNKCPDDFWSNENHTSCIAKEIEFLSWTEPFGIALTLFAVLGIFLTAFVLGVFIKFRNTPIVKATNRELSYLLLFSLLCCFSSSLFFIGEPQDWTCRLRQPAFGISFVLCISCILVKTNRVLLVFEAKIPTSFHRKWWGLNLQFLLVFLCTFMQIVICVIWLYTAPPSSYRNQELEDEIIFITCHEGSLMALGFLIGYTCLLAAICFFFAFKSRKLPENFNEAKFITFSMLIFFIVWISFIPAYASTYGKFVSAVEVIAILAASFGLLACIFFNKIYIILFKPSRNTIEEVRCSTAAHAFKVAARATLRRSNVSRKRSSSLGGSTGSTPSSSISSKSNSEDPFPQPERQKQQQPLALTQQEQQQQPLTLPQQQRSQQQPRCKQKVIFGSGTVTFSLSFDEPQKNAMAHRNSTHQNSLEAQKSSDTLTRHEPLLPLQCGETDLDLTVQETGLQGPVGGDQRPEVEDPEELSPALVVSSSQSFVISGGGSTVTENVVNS
Experiment: Ca ion concentration-dependent Cl ionic current measurement in Xenopus laevis oocytes expressing the calcium receptor
Format: cell-based
Protocol: For evaluation of the calcium receptor-activating action, a Ca ion concentration-dependent Cl ionic current measuring method using a Xenopus laevis oocyte expression system was used. If each activator is added to Xenopus laevis oocytes expressing the calcium receptor, intracellular Ca ions increase. Then, the Ca ion concentration-dependent Cl channel opens, and the intracellular current value changes as an ionic current. By measuring the change in the intracellular current value, whether the calcium receptor-activating action is present or not can be determined.
Specifically, the abdomen of Xenopus laevis was opened, and an egg batch was taken out and then treated with a 1% collagenase solution at 20° C. for 2 hours to obtain individual oocytes. Into the oocytes, 50 nl of 1 μg/μl receptor cRNA or 50 nl of sterilized water per oocyte were injected by using a micro glass capillary, and the oocytes were cultured at 18° C. for 2 to 3 days. For the culture, a solution obtained by adding 2 mM pyruvic acid, 10 U/ml penicillin, and 10 μg/ml streptomycin to the solution in Example 2 was used. After the culture, a test solution was added to the oocytes injected with cRNA or sterilized water. Electrophysiological measurement was performed by using an amplifier Geneclamp 500 (manufactured by Axon) and recording software AxoScope 9.0 (manufactured by Axon). The oocytes were membrane potential-clamped at −70 mV by the double electrode potential clamp method, and the intracellular current was measured via the Ca ion concentration-dependent Cl ion channel. The maximum value of the intracellular current was defined as the response current value. […]
The calcium receptor-activating action of L-amino acids was evaluated by using the method described in Example 13. That is, oocytes injected with cRNA of the calcium receptor or sterilized water were prepared, and membrane potential-clamped at −70 mV by the double electrode potential clamp method. To the potential-clamped oocytes, alanine (10 mM), arginine (10 mM), asparagine (10 mM), aspartic acid (10 mM), cysteine (10 mM), glutamine (10 mM), glutamic acid (10 mM), glycine (10 mM), histidine (10 mM), isoleucine (10 mM), leucine (10 mM), lysine (10 mM), methionine (10 mM), phenylalanine (10 mM), proline (10 mM), serine (10 mM), threonine (10 mM), tryptophan (10 mM), tyrosine (10 mM), valine (10 mM), ornithine (10 mM), taurine (10 mM), or hydroxyproline (10 mM) was added, and Ca ion concentration-dependent Cl response current was measured. […] As for the above-described amino acids, the activating action is reported in Proc. Natl. Acad. Sci. USA, Apr. 25, 2000, 97(9): 4814-9.
The calcium receptor-activating action of D-cysteine was evaluated by using the method described in Example 13. That is, oocytes injected with cRNA of the calcium receptor or sterilized water were prepared, and membrane potential-clamped at −70 mV by the double electrode potential clamp method. To the potential-clamped oocytes, D-cysteine (10 mM), L-cysteine (10 mM), D-tryptophan (10 mM), or L-tryptophan (10 mM) was added, and Ca ion concentration-dependent Cl response current was measured.
The calcium receptor-activating action of a peptide was evaluated by using the method described in Example 13. That is, oocytes injected with cRNA of the calcium receptor or sterilized water were prepared, and membrane potential-clamped at −70 mV by the double electrode potential clamp method.

| Substance | calcium receptor-activating action (Ca ion concentration-dependent Cl response current) (peptide added at 50 μM) | calcium receptor-activating action (Ca ion concentration-dependent Cl response current) (peptide added at 500 μM) |
| --- | --- | --- |
| γ-Glu-Ala (EA) | definite calcium receptor-activating action | – |
| γ-Glu-Val (EV) | definite calcium receptor-activating action | – |
| γ-Glu-Thr (ET) | definite calcium receptor-activating action | – |
| γ-Glu-Gly (EG) | – | definite calcium receptor-activating action |
| γ-Glu-Met (EM) | – | definite calcium receptor-activating action |
